Measured values as given in EP4631502A1 (Nicoventures Trading Limited, priority 2024, dated 2025).
Values joined by “and” are separate entries in the source; they are usually repeats but may differ in a detail not shown here. Equal entries are not always repeated.

Amino acid sequences for entries named in this document (tags omitted).
UniProt P30542, whole entry: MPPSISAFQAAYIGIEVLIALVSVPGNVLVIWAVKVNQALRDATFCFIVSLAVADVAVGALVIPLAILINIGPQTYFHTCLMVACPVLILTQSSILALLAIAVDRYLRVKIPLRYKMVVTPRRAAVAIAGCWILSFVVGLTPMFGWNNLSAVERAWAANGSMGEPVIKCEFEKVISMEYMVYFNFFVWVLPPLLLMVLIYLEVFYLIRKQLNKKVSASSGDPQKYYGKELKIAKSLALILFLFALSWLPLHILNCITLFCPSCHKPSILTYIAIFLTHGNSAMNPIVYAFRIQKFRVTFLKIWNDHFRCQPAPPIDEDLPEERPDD

How the values were obtained:
[1] = molecular target: T1, Human adenosine A1 receptors (Homo sapiens, UniProt P30542); test: biochemical
[2] = molecular target: T1, Human adenosine A1 receptors; test: Adenosine A1 receptor functional assay ([35S]-GTPγS binding, assay conditions II); conditions: 1. and 2. Measurement

## COc1ccc(-c2cc(=O)c3c(OC)c(OC)c(OC)cc3o2)cc1 [Tetramethylscutallarein, Scutallarein tetramethyl ether]
[1]; IC50 1.M, first measurement, [3H]-DPCPX 1 nM, 60 min, 27°C
  IC50: 4.8 µM
[1]; IC50 2.M, second measurement, [3H]-DPCPX 1 nM, 60 min, 27°C
  IC50: 9.3 µM
[1]; IC50 Mean, mean of 1.M and 2.M
  IC50: 7.1 µM
[2]; IC50 in µM agonist mode, agonist mode (effect on basal signal)
  IC50: 2 µM and 7 µM
[2]; IC50 in µM antagonist mode, antagonist mode (CCPA-stimulated signal)
  IC50: 9 µM and 13 µM
